Patent publication US11771634B2, “Antimicrobial antifungal composition” (GODREJ INDUSTRIES LIMITED, priority 2021, dated 2023)

Test system: zein (corn protein)

Undecylenamidopropyl PG-Dimonium Chloride Phosphate & Sophorolipid (50:50 w/w ratio) [UDAP PB + Sophorolipid (50:50 w/w)]
Zein Number (ZN): 9.35 mg N/100 mL
